Values of other authors in patent US20240277641A1, “METHODS FOR TREATING NERVOUS SYSTEM DISORDERS WITH […] AGENTS” (PAXMEDICA, INC., priority 2021, published 2024).

Amino acid sequences for entries named in this document (tags omitted). A change or cut given only in a name is not applied to a line headed by its entry.
UniProt Q99572: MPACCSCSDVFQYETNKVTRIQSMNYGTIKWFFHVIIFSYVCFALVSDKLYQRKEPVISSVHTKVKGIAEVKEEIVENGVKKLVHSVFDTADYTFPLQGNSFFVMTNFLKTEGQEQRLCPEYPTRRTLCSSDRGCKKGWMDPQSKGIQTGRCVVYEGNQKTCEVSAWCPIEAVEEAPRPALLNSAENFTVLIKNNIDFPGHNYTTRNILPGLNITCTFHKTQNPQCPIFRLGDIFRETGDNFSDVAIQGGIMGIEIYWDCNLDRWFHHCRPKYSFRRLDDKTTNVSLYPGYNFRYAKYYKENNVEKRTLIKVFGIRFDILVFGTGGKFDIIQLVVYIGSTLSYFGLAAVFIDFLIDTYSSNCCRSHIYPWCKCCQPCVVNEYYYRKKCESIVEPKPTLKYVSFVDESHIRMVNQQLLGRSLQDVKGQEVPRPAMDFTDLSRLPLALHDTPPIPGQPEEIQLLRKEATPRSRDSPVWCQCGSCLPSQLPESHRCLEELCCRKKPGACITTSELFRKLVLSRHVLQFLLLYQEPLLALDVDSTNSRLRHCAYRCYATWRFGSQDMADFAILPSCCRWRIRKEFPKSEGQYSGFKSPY

Biological target: human P2X7 receptor (Homo sapiens, UniProt Q99572)
Details: cited from earlier work

For `C[C@H](N/C(=N/C#N)Nc1cccc2ncccc12)c1ccccc1` [A-804598, N-Cyano-N″-[(1S)-1-phenylethyl]-N′-5-quinolinyl-guanidine], the IC50 is given as 0.011 µM.
